Assay results published in patent US10030103B2, “Stable helical ionic polypeptides” (The Board of Trustees of the University of Illinois, priority 2010, dated 2018).
“Also recorded” adds a separate entry of the source. Where two headings read alike, the source gives them in different places.

Columns and labels:
[1] = Circular dichroism (CD) analysis of polypeptide conformation in aqueous solution; type: physicochemical; settings: for Helical content: (−[θ]222 + 3000)/39,000; for pH dependence of −[θ]222 / helical conformation: pH range as stated in the value; for conformation: aqueous solution and solid state; for −[θ]222 versus degree of polymerization: pH 3 (FIG. 11); for decrease of −[θ]222 value: from 4° C. to 70° C.
[2] = aqueous solution; cited from earlier work
[3] = Table 9-2, aqueous solution, pH 2 (pH 10 for (PAOBLG-MPA)10, FIG. 82a)
[4] = PVBLG-1, charges 11 σ-bonds from backbone
[5] = Table 1, CD of PVBLG-X in water
[6] = 25 mM NaCl solutions, c=0.028 mg/mL

Poly(γ-(4-aminoethylthiopropoxyl)-benzyl-L-glutamate) [(PAOBLG-AET)20]
Helical content ([1]; Table 9-2): 94% | −[θ]222 × 10^−3 [1, 3]: 34.0 cm^2 · deg · dmol^−1 | helicity ([1]; pH 2): 94% | −[θ]222 ([1]; pH 2): 34.0 ×10^3 cm^2·deg·dmol^−1

Poly(γ-(4-carboxylic acid benzyl) glutamate)
pH dependence of −[θ]222 / helical conformation [1]: maintains its helical conformation at each pH tested (pH=2-9); also recorded: can maintain its helical conformation traversing each pH tested (pH=2-9)

methyl-terminated poly(ethylene glycol) block cysteamine hydrochloride grafted poly (O-allyl-L-serine) [6a]
conformation [1]: β-sheet conformation | solubility in water (Water solubility): not able to re-dissolve in DI water

poly(γ-(4-(1-hexanol-6-aminomethyl))benzyl-L-glutamate) [(PVBLG-1)10]
helicity [1, 4]: 26% | −[θ]222 versus length of the polymer ([1]; Table 1): 7,200 cm^2·deg·dmol^−1 | −[θ]222 × 10^−3 [1, 5]: 7.2 cm^2 · deg · dmol^−1 | Helical content ([1]; Table 9-2): 26% | −[θ]222 × 10^−3 [1, 3]: 7.2 cm^2 · deg · dmol^−1 | helicity ([1]; pH 2): 26% | −[θ]222 ([1]; pH 2): 7.2 ×10^3 cm^2·deg·dmol^−1 | −[θ]222 versus degree of polymerization [1]: 7170 deg·cm^2·dmol^−1

poly(γ-(4-(1-hexanol-6-aminomethyl))benzyl-L-glutamate) [(PVBLG-1)142]
−[θ]222 versus length of the polymer ([1]; Table 1): 55,000 cm^2·deg·dmol^−1 | −[θ]222 × 10^−3 [1, 5]: 55.0 cm^2 · deg · dmol^−1 | −[θ]222 versus degree of polymerization [1]: 55,000 deg·cm^2·dmol^−1

poly(γ-(4-(1-hexanol-6-aminomethyl))benzyl-L-glutamate) [(PVBLG-1)40]
−[θ]222 versus length of the polymer ([1]; Table 1): 23,100 cm^2·deg·dmol^−1 | −[θ]222 × 10^−3 [1, 5]: 23.1 cm^2 · deg · dmol^−1 | −[θ]222 versus degree of polymerization [1]: 23,200 deg·cm^2·dmol^−1

Poly(γ-(4-aminoethylthiopropoxyl)-benzyl-L-glutamate) [(PAOBLG-AET)50]
Helical content ([1]; Table 9-2): 100% | −[θ]222 × 10^−3 [1, 3]: 36.8 cm^2 · deg · dmol^−1 | helicity ([1]; pH 2): 100% | −[θ]222 ([1]; pH 2): 36.8 ×10^3 cm^2·deg·dmol^−1

Poly(γ-(6-aminohexyl)-L-glutamate)) [PAHG57]
−[θ]222 [1, 6]: ~14 ×10^3 cm^2·deg/dmol | −[θ]222 ([1]; 4° C., pH 3): 15,900 cm^2·deg·dmol^−1 | −[θ]222 ([1]; 70° C., pH 3): 8,700 cm^2·deg·dmol^−1 | −[θ]222 on change of NaCl concentration ([1]; NaCl 0 to 4.68 M, pH 3, 25° C.): remained nearly unchanged | conformation by CD ([1]; aqueous solution, pH 1): α-helical conformation | decrease of −[θ]222 value ([1]; pH 3): 45% | −[θ]222 ([1]; pH 1): 14,000 cm^2·deg·dmol^−1 | −[θ]222 ([1]; pH 10): 14,200 cm^2·deg·dmol^−1 | pH dependence of −[θ]222 / helical conformation [1]: remarkable pH-independent helical stability at pH values ranging from 1 to 10

Poly(γ-(4-aminoethylthiopropoxyl)-benzyl-L-glutamate) [PAOBLG-AET]
helicity / helical content ([1]; degree of polymerization 10, pH 2 aqueous solution): 81%

Poly(N-hydroxyalkyl-L-glutamine)
helicity [2]: ≤ 65%

poly(γ-(4-(1-hexanol-6-aminomethyl))benzyl-L-glutamate) [(PVBLG-1)60]
−[θ]222 [1, 6]: ~32 ×10^3 cm^2·deg/dmol | −[θ]222 ([1]; 4° C., pH 3): 31,700 cm^2·deg·dmol^−1 | −[θ]222 ([1]; 70° C., pH 3): 25,100 cm^2·deg·dmol^−1 | helicity [1, 4]: 91% | −[θ]222 × 10^−3 [1, 5]: 30.1 cm^2 · deg · dmol^−1 | decrease of −[θ]222 value ([1]; pH 3): 21% | −[θ]222 ([1]; pH 1): 32,600 cm^2·deg·dmol^−1 | −[θ]222 versus degree of polymerization [1]: 30,100 deg·cm^2·dmol^−1 | pH dependence of −[θ]222 / helical conformation [1]: remained unchanged when the solution's pH was increased from 1 to 10; also recorded: remains unchanged between pH 1 and 10 | water solubility (Water solubility; pH 1-10): > 40 mg/kg

poly(γ-(3-aminopropyl)-L-glutamate)) [PAPG57]
conformation by CD ([1]; aqueous solution, pH 1): distorted conformation

methyl-terminated poly(ethylene glycol) block cysteamine hydrochloride grafted poly (O-pentenyl-L-serine) [6b]
conformation [1]: β-sheet conformation | solubility in water (Water solubility): not able to re-dissolve in DI water

Poly(γ-(4-aminoethylthiopropoxyl)-benzyl-L-glutamate) [(PAOBLG-AET)10]
−[θ]222 ([1]; 4° C., pH 2, 0.05 mg·mL^−1): 28,800 cm^2·deg·dmol^−1 | original helical content maintained ([1]; 5M urea): ~100% | −[θ]222 ([1]; 70° C., pH 2, 0.05 mg·mL^−1): 21,600 cm^2·deg·dmol^−1 | Helical content ([1]; Table 9-2): 81% | −[θ]222 × 10^−3 [1, 3]: 28.5 cm^2 · deg · dmol^−1 | decrease of −[θ]222 value ([1]; pH 2): 25% | helicity ([1]; pH 2): 81% | −[θ]222 ([1]; pH 2): 28.5 ×10^3 cm^2·deg·dmol^−1
